Data as given in PubChem BioAssay AID1298 (SRMLSC, 2008).
Only a part is listed here, and it is no random draw. Active and inactive are the calls of the source.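 Rule for the calls: active = RAM network inhibition above 8.4% in each of two replicates, 3 SD over the compound average; inconclusive = above 8.4% inhibition in only one replicate; inactive = 8.4% inhibition or less in each replicate.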

Test: RAM signaling pathway blockade in yeast – S. cerevisiae, Pdr1DBD-CYC8 efflux-inhibited sensitized strain, primary screen (AID 1298);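 note: 0% = DMSO untreated cells without growth and 100% = 10 µM 1-NA-PP1 full growth; higher means more yeast growth rescued from 5-FOA killing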
Conditions: S. cerevisiae cbk1-as DSE1-URA3 strain, 5-FOA growth OD615, 2 d; at 50 µM; hits give high values
For `CP(=O)(Nc1ccc2c(c1)OCCO2)Oc1ccccc1` (stereo not given), the RAM network inhibition was inactive: 1.35%.
For `CP(=O)(Oc1ccccc1)N1CCOC1=O` (stereo not given), the RAM network inhibition was inactive: -0.12%.
For `CP(=O)(NC(=O)Nc1ccccc1)Oc1ccccc1` (stereo not given), the RAM network inhibition was inactive: -0.21%.
In the case of `Cc1ccc(NP(C)(=O)Oc2ccccc2)c(C)c1` (stereo not given), the RAM network inhibition is reported as inactive: 0.95%.
For `Cc1ccc(C)c(NP(C)(=O)Oc2ccccc2)c1` (stereo not given), the RAM network inhibition was inactive: 1.97%.
